Amino acid sequences for entries named in this document (tags omitted).
UniProt P09874, whole entry: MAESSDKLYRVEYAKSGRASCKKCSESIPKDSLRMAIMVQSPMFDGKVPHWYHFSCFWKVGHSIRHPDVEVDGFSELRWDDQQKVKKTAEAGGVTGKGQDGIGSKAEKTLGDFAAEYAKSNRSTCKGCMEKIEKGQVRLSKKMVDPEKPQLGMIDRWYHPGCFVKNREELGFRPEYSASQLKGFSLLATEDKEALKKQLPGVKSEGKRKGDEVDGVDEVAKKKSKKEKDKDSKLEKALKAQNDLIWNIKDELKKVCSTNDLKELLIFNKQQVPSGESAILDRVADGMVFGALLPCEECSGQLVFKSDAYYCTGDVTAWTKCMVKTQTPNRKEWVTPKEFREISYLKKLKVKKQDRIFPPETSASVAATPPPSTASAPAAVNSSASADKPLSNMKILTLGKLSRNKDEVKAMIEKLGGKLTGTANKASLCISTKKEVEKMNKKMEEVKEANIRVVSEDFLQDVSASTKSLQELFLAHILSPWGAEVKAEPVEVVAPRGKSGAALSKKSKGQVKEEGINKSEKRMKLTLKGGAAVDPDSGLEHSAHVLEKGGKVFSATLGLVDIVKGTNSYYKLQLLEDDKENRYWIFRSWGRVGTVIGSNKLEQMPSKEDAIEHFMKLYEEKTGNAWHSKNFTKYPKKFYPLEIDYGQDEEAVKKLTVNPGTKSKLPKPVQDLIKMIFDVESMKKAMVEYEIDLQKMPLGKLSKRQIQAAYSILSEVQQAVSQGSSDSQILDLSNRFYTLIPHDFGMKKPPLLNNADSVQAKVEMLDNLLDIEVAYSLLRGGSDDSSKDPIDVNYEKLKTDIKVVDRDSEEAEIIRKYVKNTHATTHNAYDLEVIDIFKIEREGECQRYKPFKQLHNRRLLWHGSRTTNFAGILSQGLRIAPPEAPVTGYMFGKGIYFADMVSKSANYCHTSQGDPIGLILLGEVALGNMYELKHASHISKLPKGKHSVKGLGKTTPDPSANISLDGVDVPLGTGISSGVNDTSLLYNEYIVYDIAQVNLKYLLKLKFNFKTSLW

In patent publication US10550108B2, “Poly(ADP-ribose) polymerase 1 inhibitors structurally unrelated to NAD” (Institute for Cancer Research, priority 2014, dated 2020):

Columns and labels:
PARP-1 [1] = target: T1, PARP-1 (Homo sapiens, UniProt P09874); conditions: BT474 and PC3 cell cultures, Western blot with anti-pADPr antibody
PARP-1 [2] = target: T1, PARP-1; assay: PARP-1 activation screening assay, 384-well ELISA plate coated with histone H4

Q: How did the “pADPr amounts in cells (PARP-1 inhibition)” value (PARP-1 [1]) turn out when “4-Amino-1,8-naphthalimide [Formula 4ANI]” was run?
A: diminished pADPr amounts considerably

Q: And the Value (PARP-1 [2])?
A: 0.05
